Sampled rows, rich in hits. Any-hit rate of the full collection: about 3.7%.
p53 reactivator – restores transcriptional activity of mutant p53. H1299 p53-A138V BP100-luciferase reporter, luminescence, 24 h. Potency, µM (titrated, usually from 92.2 µM), usual class: activators. 0.063% of 320,000 active; further: nearly all actives have a fitted effect of over 45% in size
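H1299 (p53-null), stable ts p53-A138V + BP100-Luc; 1000 cells/well, Opti-MEM/10% FBS; cpd 4 pt, 1:5; 24 h, 37 deg C, 5% CO2; detection reagent 10 min RT; luminescence.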
Nrf2 activator – activators of Nrf2 (ARE) signaling | AREc32 ARE-luciferase reporter (MCF7-derived line), luminescence, 24 h | Potency, µM (top dose mostly 46.1 µM), hits mostly activators | 0.31% of 410,000 active | AID 624171; further: nearly all actives have a fitted effect of over 65% in size
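AREc32 cells carrying an ARE-driven firefly luciferase, 1000 cells/well in OPTI-MEM with 5% FBS, dosed after overnight attachment and incubated 24 hr at 37 deg C. Steady-Glo luminescence read after 30 min at RT.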
miR-21 FLuc – miR-21 reporter, rising signal; 340,000 tested, under 10 active; Potency, µM (highest dose often 38.3 µM); HeLa miR-21 FLuc reporter, luciferase, 48 h; active = well fitted rising curve with a large enough effect; inconclusive = small, poorly fitted or top-dose-only effect; inactive = no such curve, though single readings can be large or run the other way;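 further: miR-21 action dims this reporter so a rising signal means less miR-21 action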
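Compounds were titrated across several concentrations (up to approximately 40 uM) and incubated 48 hours with HeLa miR-21-FLuc reporter cells (miR-21 target sequence downstream of FLuc, endogenous miR-21). Readout was firefly luciferase luminescence after lytic detection reagent.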
A549 tox – A549 cytotoxicity, counter-screen for Nrf2 inhibitors | Potency, µM (top dose mostly 46 µM), hits mostly inhibitors | 0.16% of 390,000 active | A549 ARE-Fluc cells, CellTiter-Fluor viability, 18-24 h
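A549 ARE_Fluc cells in 5% FBS OPTI-MEM were exposed to compounds in concentration-response for 18-24 h at 37 deg C. Viability was read by CellTiter-Fluor fluorescence (Ex 405/Em 525) after 30 min, before the luciferase read.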
ClpP mod – qHTS Assay for Activators of ClpP; AID 651965, 2013; 1.9% of 340,000 active; ATP-dependent Clp protease proteolytic subunit (Bacillus subtilis (strain 168)), P80244; Potency, µM (titrated, usually from 57.5 µM); purified B. subtilis ClpP, FRET peptide cleavage, 20 min; active means well fitted falling curve with a large enough effect; inconclusive means small, poorly fitted or top-dose-only effect; inactive means no such curve, though single readings can be large or run the other way; further: the source files actives as falling curves though it sought activators and does not explain the sign; nearly all actives have a fitted effect of over 65% in size
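Buffer: 100 mM Tris/HCl pH8, 100 mM KCl, 0.05% low protease BSA, 2.5% glycerol, 0.01% Tween-20. ClpP 10 microg/mL final; 20 min RT; delta FRET normalized to ADEP and DMSO controls.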
Nrf2 inh – Nrf2 pathway inhibition; A549 ARE-Fluc reporter, luciferase luminescence, 18-24 h; Potency, µM (top dose mostly 46 µM), usual class: inhibitors; 2.1% of 360,000 active; further: nearly all actives have a fitted effect of over 60% in size
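Cells were seeded and rested 2 h, then exposed to compounds for 18-24 h. CellTiter-Fluor was read first as a viability measure. BugLite was added 15 min before the final luminescent read of ARE-luciferase activity in A549 cells.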
Numbers stand for hits; . = inactive; ? = inconclusive; / = no result given; [ ] = another dose, or the depositor's remark. Unless noted, the call rests on the fitted dose curve; in most records, active means well fitted curve in the direction sought with a large enough effect; inconclusive means small, poorly fitted or top-dose-only effect, or another doubt; inactive means no such curve, though single readings can be large; an effect the other way counts as inactive or inconclusive.

The chains behind the UniProt entries cited, without tags or fusion partners.
ATP-dependent Clp protease proteolytic subunit (Bacillus subtilis (strain 168)), P80244, UniProt P80244, whole entry, looked up: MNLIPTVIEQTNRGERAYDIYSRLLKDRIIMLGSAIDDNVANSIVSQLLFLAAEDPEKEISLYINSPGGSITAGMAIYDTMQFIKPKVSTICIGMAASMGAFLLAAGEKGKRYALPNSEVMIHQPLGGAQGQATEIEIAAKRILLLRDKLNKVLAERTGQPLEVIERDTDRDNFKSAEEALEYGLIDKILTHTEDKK

SMILES	p53 reactivator	Nrf2 activator	miR-21 FLuc	A549 tox	ClpP mod	Nrf2 inh
COc1cccc(C2C(C(=O)Nc3ccccc3OC)=C(C)Nc3nc4ccccc4n32)c1 (stereo not given)	/	.	.	.	.	.
COCC(=O)N(C)C[C@H]1N[C@@](C)(C(=O)OC)[C@H]2C(=O)N(Cc3ccccc3)C(=O)[C@@H]12	.	.	/	.	.	.
CCc1ccc(NC(=O)CCc2nnc3n(C)c(=O)c4sccc4n23)cc1	/	.	.	.	.	.
COc1ccc(Cn2nnnc2CN(Cc2cc3ccc(C)cc3[nH]c2=O)C2CCCC2)cc1	.	.	.	?	.	21µM
COc1ccc(Cn2nnnc2CN(Cc2cc3cccc(C)c3[nH]c2=O)C2CCCC2)cc1	.	.	.	.	.	?
COc1cc(C2C(C(=O)c3ccc(C)o3)=C(O)C(=O)N2CCCn2ccnc2)cc(OC)c1OC (stereo not given)	.	.	.	.	25µM	.
CCn1cnc2c(Nc3ccc(CCC(=O)N=C(N)N)cc3)nc(C#N)nc21	/	/	/	.	/	.
CCOc1ccc(CC(=O)NC2CC(=O)N(c3cccc(F)c3)C2)cc1 (stereo not given)	/	.	.	.	.	/
CCN(c1ccccc1)S(=O)(=O)c1ccc(NC(=O)c2cc(=O)c3cc(C)ccc3o2)cc1	/	.	.	.	.	.
COc1ccc(-c2nn(-c3ccccc3)cc2/C=C2/SC(=S)N(CCC(=O)O)C2=O)cc1	.	.	.	?	.	23µM
CCc1cc(Cn2nc(-c3ccccc3)cc2C(=O)NCc2ccccc2OC)on1	.	.	/	.	.	.
COc1ccccc1Sc1nc(-c2ccccn2)ncc1OC	.	.[9.22 µM]	?	.	/	?
COc1cnc(-c2ccccn2)nc1NC(C)C	?	.	.	?	/	15µM
COc1ccc(C)cc1NC(=O)Cn1cc(S(=O)(=O)Cc2ccccc2Cl)c2ccccc21	/	.	.	.	.	.
CCCN(CCC)C(=O)Cn1c(=O)n(-c2ccc(OC)cc2)c(=O)c2ccc(C(=O)NCc3ccc(C)cc3)cc21	/	.	.	.	.	.
CCN(CC)C(=O)CSc1nc2nc(C)cc(C)c2c(=O)[nH]1	.	.	.	.	25µM	.
Cc1cc(C)c2c(=O)[nH]c(SCC(=O)N(C)C)nc2n1	.	.	.	.	.	.
CC1CCN(C(=O)CN2C(=O)c3cccc4cccc(c34)C2=O)CC1	.	11µM	.	.	.	.
O=C(CN1C(=O)c2cccc3cccc1c23)NCc1ccc2c(c1)OCO2	.	.	.	.	.	/
CC1CCN(C(=O)CN2C(=O)C(=O)c3ccccc32)CC1	.	.	.	.	.	.
O=C(CN1C(=O)c2cccc3cccc(c23)C1=O)N1CCN(Cc2ccc3c(c2)OCO3)CC1	.	.	.	.[1.84 µM]	25µM	?
COc1cccc(/C=C/c2nc(C#N)c(N3CCCCC3)o2)c1	/	.	.	.	.	.
Cc1ccc(-c2cc(C)nc3nc(N)nn23)cc1	.	.	.	.	14µM	.
Cc1ccc(-c2cc(C)nc3ncnn23)cc1	.	.	.	.	.	.
COc1ccc(CN(C(=O)CSc2nnc(-c3ccccc3F)o2)c2ccc(F)cc2)cc1	.	.	.	.	.	21µM
SMILES	p53 reactivator	Nrf2 activator	miR-21 FLuc	A549 tox	ClpP mod	Nrf2 inh
COC(=O)c1ccc(N=C2S/C(=C\c3cc(C)n(-c4cccnc4)c3C)C(=O)N2C)cc1	.	.	.	?	.	26µM
CCOC(=O)c1cc(C#N)c(NCc2ccccc2)nc1C	.	.	.	.	32µM	.
CCOC(=O)c1cc(C#N)c(N2CCCC2)nc1-c1ccccc1	.	.	.	.	28µM	/
CCC(=O)N1CCN(c2nc(-c3ccccc3)c3c(c2C#N)CCCC3)CC1	.	.	.	.	32µM	?
CC(=O)c1cc(C#N)c(NCc2ccccc2)nc1C	.	.	.	.	/	.
CCOC(=O)c1cc(C#N)c(N2CCN(C)CC2)nc1-c1ccccc1	.	.	.	.	/	.
CC(=O)Oc1ccc(Cn2c(C)c(C(=O)NCc3ccc4c(c3)OCCO4)sc2=O)cc1	/	.	/	/	.	/
CN(C)C(CNC(=O)c1ccco1)c1cccs1 (stereo not given)	.	.	/	.	11µM	?
CCN(Cc1ccccc1)S(=O)(=O)c1cc(C(=O)NCC2CCCCC2)ccc1OC	.	.	.	.	.	12µM
CCN(Cc1ccccc1)S(=O)(=O)c1cc(C(=O)NC2CCCCCC2)ccc1OC	.	.	.	?	.	?
c1ccc(-c2nc(-c3cccs3)[nH]c2-c2ccccc2)cc1	.	.	.	.	32µM	.
COc1cc(-c2nc(-c3ccc4c(c3)-c3ccccc3S4(=O)=O)c(-c3ccccc3)[nH]2)cc(OC)c1OC	.	.	.	.	.	.
COc1cc(-c2nc(-c3ccccc3)c(-c3cccs3)[nH]2)cc(OC)c1OC	.	.	.	.	32µM	?
O=C(O)c1ccccc1-c1nc(-c2ccccc2)c(-c2ccccc2)[nH]1	.	.	.	.	/	.
Oc1ccccc1-c1nc2c3ccccc3c3ccccc3c2[nH]1	.	.	.	.	.	.
COc1cc(-c2nc(-c3ccccc3)c(-c3cccs3)[nH]2)cc(OC)c1O	.	.	.	.	28µM	?
c1csc(-c2nc3c4ccccc4c4ccccc4c3[nH]2)c1	.	?	.	.	40µM	.
Cc1cc[n+](-c2nc3ccccc3nc2[N-]S(=O)(=O)c2cccs2)cc1C	.	.	.	.	8.9µM	.
Cc1cc[n+](-c2nc3ccccc3nc2[N-]S(=O)(=O)c2ccccc2)cc1	.	.	.	.	.	.
O=C1CC(c2ccccc2)CC(O)=C1C=Nc1ccccc1O (stereo not given)	.	14µM	.	.	.	.
O=C1CC(c2ccco2)CC(O)=C1C=Nc1cc(Cl)ccc1O (stereo not given)	.	10µM	.	.	.	?
O=C1CC(c2ccccc2)CC(O)=C1C=Nc1ccccc1 (stereo not given)	.	.	.	.	/	.
O=C1CC(c2ccco2)CC(O)=C1C=Nc1cc(Cl)ccc1Cl (stereo not given)	.	.	.	.	?	.
Cc1cccn2c(=O)cc(COc3cccc(NC(=O)c4cccc(Cl)c4)c3)nc12	/	.	.	.	.	/
O=C(COC(=O)/C=C/c1ccccc1)NCCc1ccc(F)cc1	.	.	/	.	/	.
Cc1ccccc1C(=O)Nc1cccc(C(=O)OCc2cc(=O)n3c4c(sc3n2)CCCC4)c1	/	.	.	.	?	/

Bioassay records (PubChem BioAssay)
